{"source": "paper PMC10970924", "about": "“Anticancer Potential of Pyridoxine-Based Doxorubicin Derivatives: An In Vitro Study” (Life, 2024)", "system": "PC-3 cells", "conditions": "PC-3, 1.1 µM (IC50), 3 days", "data": [{"molecule": "COc1cccc2c1C(=O)c1c(O)c3c(c(O)c1C2=O)C[C@@](O)(C(=O)CO)C[C@@H]3O[C@H]1C[C@H](N)[C@H](O)[C@H](C)O1", "note": "[DOX, Doxorubicin]", "values": [{"measurement": "Tail Moment", "value": 24.57}]}]}
